The nature of this series: soluble on expression in E. coli; label from the status in PepcDB or PDB records.
As for “MIPGEYHVKPGQIALNTGRATCRVVVENHGDRPIQVGSHYHFAEVNPALKFDRQQAAGYRLNIPAGTAVRFEPGQKREVELVAFAGHRAVFGFRGEVMGPLEVNDE”, the “soluble on expression in E. coli” value is listed as “soluble”.
Take “MIRLYPEQLRAQLNEGLRAAYLLLGNDPLLLQESQDAVRQVAAAQGFEEHHTFSIDPNTDWNAIFSLCQAMSLFASRQTLLLLLPENGPNAAINEQLLTLTGLLHDDLLLIVRGNKLSKAQENAAWFTALANRSVQVTCQTPEQAQLPRWVAARAKQLNLELDDAANQVLCYCYEGNLLALAQALERLSLLWPDGKLTLPRVEQAVNDAAHFTPFHWVDALLMGKSKRALHILQQLRLEGSEPVILLRTLQRELLLLVNLKRQSAHTPLRALFDKHRVWQNRRGMMGEALNRLSQTQLRQAVQLLTRTELTLKQDYGQSVWAELEGLSLLLCHKPLADVFIDG”: the “soluble on expression in E. coli” value is listed as “soluble”.
For the sequence “MRWYPWLRPDFEKLVASYQAGRGHHALLIQALPGMGDDALIYALSRYLLCQQPQGHKSCGHCRGCQLMQAGTHPDYYTLAPEKGKNTLGVDAVREVTEKLNEHARLGGAKVVWVTDAALLTDAAANALLKTLEEPPAETWFFLATREPERLLATLRSRCRLHYLAPPPEQYAVTWLSREVTMSQDALLAALRLSAGSPGAALALFQGDNWQARETLCQALAYSVPSGDWYSLLAALNHEQAPARLHWLATLLMDALKRHHGAAQVTNVDVPGLVAELANHLSPSRLQAILGDVCHIREQLMSVTGINRELLITDLLLRIEHYLQPGVVLPVPHL”, the “soluble on expression in E. coli” value is reported as “soluble”.
On to “MSGWESYYKTEGDEEAEEEQEENLEASGDYKYSGRDSLIFLVDASKAMFESQSEDELTPFDMSIQCIQSVYISKIISSDRDLLAVVFYGTEKDKNSVNFKNIYVLQELDNPGAKRILELDQFKGQQGQKRFQDMMGHGSDYSLSEVLWVCANLFSDVQFKMSHKRIMLFTNEDNPHGNDSAKASRARTKAGDLRDTGIFLDLMHLKKPGGFDISLFYRDIISIAEDEDLRVHFEESSKLEDLLRKVRAKETRKRALSRLKLKLNKDIVISVGIYNLVQKALKPPPIKLYRETNEPVKTKTRTFNTSTGGLLLPSDTKRSQIYGSRQIILEKEETEELKRFDDPGLMLMGFKPLVLLKKHHYLRPSLFVYPEESLVIGSSTLFSALLIKCLEKEVAALCRYTPRRNIPPYFVALVPQEEELDDQKIQVTPPGFQLVFLPFADDKRKMPFTEKIMATPEQVGKMKAIVEKLRFTYRSDSFENPVLQQHFRNLEALALDLMEPEQAVDLTLPKVEAMNKRLGSLVDEFKELVYPPDYNPEGKVTKRKHDNEGSGSKRPKVEYSEEELKTHISKGTLGKFTVPMLKEACRAYGLKSGLKKQELLEALTKHFQD”, for which the “soluble on expression in E. coli” value is recorded as “soluble”.
As to “MSPILGYWKIKGLVQPTRLLLEYLEEKYEEHLYERDEGDKWRNKKFELGLEFPNLPYYIDGDVKLTQSMAIIRYIADKHNMLGGCPKERAEISMLEGAVLDIRYGVSRIAYSKDFETLKVDFLSKLPEMLKMFEDRLCHKTYLNGDHVTHPDFMLYDALDVVLYMDPMCLDAFPKLVCFKKRIEAIPQIDKYLKSSKYIAWPLQGWQATFGGGDHPPKSDLVPRGSSYYQEAKSSKIMESFKNMVPQQALVNSS”, the “soluble on expression in E. coli” value is “soluble”.
Turning to “SATEPPSPLRVEAPGPPEMRTSPAIESTPEGTPQPAGGRLRFLNGCVPLSHQVAGHMYGKDKVGILQHPDGTVLKQLQPPPRGPRELEFYNMVYAADCFDGVLLELRKYLPKYYGIWSPPTAPNDLYLKLEDVTHKFNKPCIMDVKIGQKSYDPFASSEKIQQQVSKYPLMEEIGFLVLGMRVYHVHSDSYETENQHYGRSLTKETIKDGVSRFFHNGYCLRKDAVAASIQKIEKILQWFENQKQLNFYASSLLFVYEGSSQPTTTKLNDRTLAEKFLSKGQLSDTEVLEYNNNFHVLSSTANGKIESSVGKSLSKMYARHRKIYTKKHHSQTSLKVENLEQDNGWKSMSQEHLNGNVLSQLEKVFYHLPTGCQEIAEVEVRMIDFAHVFPSNTIDEGYVYGLKHLISVLRSILDN”, the “soluble on expression in E. coli” value is “not soluble”.
